Measurements from patent US7192924B2, “Corticotropin releasing factor 2 receptor agonists” (priority 2002, dated 2007).

How the values were obtained:
CRF2R = molecular target: T1, CRF2R (Homo sapiens, UniProt Q13324); assay: CRF2R agonist activity (EC50, Emax), called comparative CRF binding; assay type: cell-based
T1 sequence (Q13324 1-411): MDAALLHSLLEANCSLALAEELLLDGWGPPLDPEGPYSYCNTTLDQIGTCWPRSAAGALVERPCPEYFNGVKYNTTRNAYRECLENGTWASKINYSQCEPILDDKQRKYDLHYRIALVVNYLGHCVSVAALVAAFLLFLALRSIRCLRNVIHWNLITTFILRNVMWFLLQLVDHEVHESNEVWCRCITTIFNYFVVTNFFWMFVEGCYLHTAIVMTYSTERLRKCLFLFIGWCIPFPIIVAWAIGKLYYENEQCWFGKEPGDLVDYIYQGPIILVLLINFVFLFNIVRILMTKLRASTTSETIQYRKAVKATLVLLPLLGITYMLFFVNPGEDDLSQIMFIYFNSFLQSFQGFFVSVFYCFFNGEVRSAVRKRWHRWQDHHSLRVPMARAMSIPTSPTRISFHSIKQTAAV
In short: (§1)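 Peptides were applied to cells carrying a single CRFR subtype, then cAMP levels or CRE-driven reporter expression were quantified against vehicle-treated cells.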

CRF1R = molecular target: T2, CRF1R (Homo sapiens, UniProt P34998); assay: CRF1R agonist activity (EC50, Emax), called comparative CRF binding; assay type: cell-based
T2 sequence (P34998 24-415): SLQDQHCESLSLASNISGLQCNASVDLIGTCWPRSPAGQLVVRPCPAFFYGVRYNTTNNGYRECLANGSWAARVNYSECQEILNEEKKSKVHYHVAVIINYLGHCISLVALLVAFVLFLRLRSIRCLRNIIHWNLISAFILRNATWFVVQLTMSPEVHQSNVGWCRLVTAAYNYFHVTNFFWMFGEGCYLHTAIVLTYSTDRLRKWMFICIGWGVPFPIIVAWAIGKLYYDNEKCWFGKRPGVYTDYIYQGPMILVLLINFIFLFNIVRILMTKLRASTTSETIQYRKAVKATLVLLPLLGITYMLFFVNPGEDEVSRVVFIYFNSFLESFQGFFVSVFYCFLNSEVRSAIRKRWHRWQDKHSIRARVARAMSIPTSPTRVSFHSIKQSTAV
In short: as §1

Row | Compound | EC50 (CRF2R) [nM] | EC50 (CRF1R) [nM] | EC50 (CRF2R; read-out: CRF2R EC50) [nM] | EC50 (CRF1R; read-out: CRF1R EC50) [nM]
1 | CC[C@H](C)[C@H](NC(=O)[C@@H](NC(=O)[C@H](CC(=O)O)NC(=O)[C@H](CC(C)C)NC(=O)[C@H](CC(C)C)NC(=O)[C@H](CC(C)C)NC(=O)[C@H](CCCNC(=N)N)NC(=O)[C@H](CC(N)=O)NC(=O)[C@H](CC(N)=O)NC(=O)[C@H](C)NC(=O)[C@H](C)NC(=O)[C@H](CCC(N)=O)NC(=O)[C@H](CCC(N)=O)NC(=O)[C@H](CCCCN)NC(=O)[C@H](CCC(=O)O)NC(=O)[C@H](CCCCN)NC(=O)[C@H](CCC(=O)O)NC(=O)[C@H](CCC(N)=O)NC(=O)[C@H](CCCCN)NC(=O)[C@H](CCC(=O)O)NC(=O)[C@@H](NC(=O)[C@H](CCC(=O)O)NC(=O)[C@@H](NC(=O)[C@H](CCSC)NC(=O)[C@H](CCCCN)NC(=O)[C@H](CCCNC(=N)N)NC(=O)[C@H](CC(C)C)NC(=O)[C@H](CC(C)C)NC(=O)[C@@H](NC(=O)[C@H](Cc1ccccc1)NC(=O)[C@@H]1CCCN1C(=O)[C@H](CC(C)C)NC(=O)[C@H](CC(=O)O)NC(=O)[C@@H](NC(=O)[C@H](CO)NC(=O)[C@@H](NC(=O)[C@@H]1CCCN1C(=O)[C@@H]1CCCN1C(=O)CNC(=O)[C@@H]1CCC(=O)N1)[C@@H](C)CC)[C@@H](C)CC)[C@@H](C)CC)[C@@H](C)CC)[C@@H](C)CC)[C@@H](C)O)C(N)=O [compound 189] | 7 | 62.2 |  | 
2 | CC[C@H](C)[C@H](NC(=O)[C@@H](NC(=O)[C@H](CC(=O)O)NC(=O)[C@H](CC(C)C)NC(=O)[C@H](CC(C)C)NC(=O)[C@H](CC(C)C)NC(=O)[C@H](CCCNC(=N)N)NC(=O)[C@H](CC(N)=O)NC(=O)[C@H](CC(N)=O)NC(=O)[C@H](C)NC(=O)[C@H](C)NC(=O)[C@H](CCC(N)=O)NC(=O)[C@H](CCC(N)=O)NC(=O)[C@H](CCCCN)NC(=O)[C@H](CCC(=O)O)NC(=O)[C@H](CCCCN)NC(=O)[C@H](CCC(=O)O)NC(=O)[C@H](CCC(N)=O)NC(=O)[C@H](CCCCN)NC(=O)[C@H](CCC(=O)O)NC(=O)[C@@H](NC(=O)[C@H](CCC(=O)O)NC(=O)[C@@H](NC(=O)[C@H](CCSC)NC(=O)[C@H](CCCCN)NC(=O)[C@H](CCCNC(=N)N)NC(=O)[C@H](CC(C)C)NC(=O)[C@H](CC(C)C)NC(=O)[C@H](Cc1ccc(O)cc1)NC(=O)[C@@H](NC(=O)[C@@H]1CCCN1C(=O)[C@H](CC(C)C)NC(=O)[C@H](CC(=O)O)NC(=O)[C@@H](NC(=O)[C@H](CO)NC(=O)[C@@H](NC(=O)[C@@H]1CCCN1C(=O)[C@@H]1CCCN1C(=O)CNC(=O)[C@@H]1CCC(=O)N1)[C@@H](C)CC)[C@@H](C)CC)[C@@H](C)CC)[C@@H](C)CC)[C@@H](C)CC)[C@@H](C)O)C(N)=O [compound 79] | 22.3 | > 100 |  | 
3 | CC[C@H](C)[C@H](NC(=O)[C@H](CCCCN)NC(=O)[C@H](C)NC(=O)[C@H](CC(C)C)NC(=O)[C@H](CC(C)C)NC(=O)[C@H](CCCCN)NC(=O)[C@H](C)NC(=O)[C@H](CC(N)=O)NC(=O)[C@H](CC(N)=O)NC(=O)[C@H](C)NC(=O)[C@H](C)NC(=O)[C@H](CCC(N)=O)NC(=O)[C@H](CCC(N)=O)NC(=O)[C@H](CCCCN)NC(=O)[C@H](CCC(=O)O)NC(=O)[C@H](CCCCN)NC(=O)[C@H](CCC(=O)O)NC(=O)[C@H](CCC(N)=O)NC(=O)[C@H](CCCCN)NC(=O)[C@H](CCC(=O)O)NC(=O)[C@@H](NC(=O)[C@H](CCC(=O)O)NC(=O)[C@@H](NC(=O)[C@@H](NC(=O)[C@H](CCCCN)NC(=O)[C@H](CCCNC(=N)N)NC(=O)[C@H](CC(C)C)NC(=O)[C@H](CC(C)C)NC(=O)[C@H](CCC(N)=O)NC(=O)[C@H](Cc1ccccc1)NC(=O)[C@@H]1CCCN1C(=O)[C@H](CC(C)C)NC(=O)[C@H](CC(=O)O)NC(=O)[C@@H](NC(=O)[C@H](CO)NC(=O)[C@@H](NC(=O)[C@@H]1CCCN1C(=O)[C@@H]1CCCN1C(=O)CNC(=O)[C@@H]1CCC(=O)N1)[C@@H](C)CC)[C@@H](C)CC)C(C)C)[C@@H](C)CC)[C@@H](C)CC)C(N)=O [compound 274] |  |  | 13.8 | 508

Read-outs that look alike come from different tables or passages of the source.
